Here are results for 2 substances from patent US20120010144A1, “Peg-albumin composition having at least one protected thiol region as a platform for medications” (priority 2009, published 2012).

The nature of data set [1]: Degree of hydration of PEG-albumin colloid. The following applies: relative to albumin. It counts as physicochemical.
The nature of data set [2]: Hydrodynamic radius of PEG-albumin colloid. In kind it is physicochemical.
A short description of data set [3]: Protein unfolding studies on PEG-Alb. In kind it is physicochemical.
The conditions of data set [4]: modification of the single free thiol (cys 34); cited from earlier work.
The conditions of data set [5]: septic patients, following administration of 200 ml 20% albumin; cited from earlier work.

As to “PEG-Alb: albumin-based colloid composition, a polyethylene glycol (PEG) modified albumin”, the degree of hydration in data set [1] is listed as 13-16 times compared to albumin. This substance also came in with a hydrodynamic radius in data set [2] of 10 nm. Besides, the “albumin functionality in protein unfolding studies” value in data set [3] is recorded as “albumin functionality is highly preserved”.
“albumin: unmodified albumin, comparator and major extracellular antioxidant in plasma” displayed a hydrodynamic radius in data set [2] of 3.4 nm. In addition, the “decrease in antioxidant activity” value in data set [4] was 45%. In addition, in data set [5], the “increase in thiol concentration” value is “up to 50%”.
